# Measured values: US20230046947A1, “REACTIVE CONJUGATES” (Debiopharm Research & Manufacturing S.A., priority 2019, published 2023)
# Molecular target: T1, Fc region of trastuzumab (Homo sapiens, UniProt P01857)
# T1 construct: made in house; host or cells: recombinant CHO cell lines
# Assay: Competitive FP binding assay against Fc-III-FAM
# Description: The competitive FP measurements were performed on SpectraMax Paradigm Multi-Mode Detection Platform (Molecular Devices) in flat-bottom 384-well Corning microplates (Merck KGaA), using excitation and emission wavelengths of 485 nm and 535 nm, respectively. The acquisition time was 700 milliseconds and the read height was 1 mm. All reagents used in the assay were diluted in PBS containing 0.05% Tween 20.
# The mixture was incubated at 27° C. for 15 min and the fluorescence signal was red on a Spectramax Paradigm. All sample preparations were done in PBS pH 7.4 or 7.0 containing 0.05% Tween. Each experiment was performed in triplicate.
row,Compound,IC50 [nM]
1,CC(C)C[C@@H]1NC(=O)[C@H](Cc2c[nH]cn2)NC(=O)[C@H](Cc2c[nH]c3ccccc23)NC(=O)[C@H](C)NC(=O)[C@@H](NC(=O)[C@H](CC(=O)O)NC(=O)CCOCCOCCOCCOCCOCCOCCOCCOCCOCCOCCOCCOCCOCCOCCOCCOCCOCCOCCOCCOCCN)CSSC[C@@H](C(=O)N[C@H](C(N)=O)[C@@H](C)O)NC(=O)[C@H](Cc2c[nH]c3ccccc23)NC(=O)[C@H](C(C)C)NC(=O)[C@H](CC(C)C)NC(=O)[C@H](CCC(=O)O)NC(=O)CNC1=O [Compound 10],91 ± 12
2,CC(C)C[C@@H]1NC(=O)[C@H](Cc2c[nH]cn2)NC(=O)[C@H](Cc2c[nH]c3ccccc23)NC(=O)[C@H](C)NC(=O)[C@@H](NC(=O)[C@H](CC(=O)O)NC(=O)CCOCCOCCOCCOCCOCCOCCOCCOCCOCCOCCOCCOCCOCCOCCOCCN)CSSC[C@@H](C(=O)N[C@H](C(N)=O)[C@@H](C)O)NC(=O)[C@H](Cc2c[nH]c3ccccc23)NC(=O)[C@H](C(C)C)NC(=O)[C@H](CC(C)C)NC(=O)[C@H](CCC(=O)O)NC(=O)CNC1=O [Compound 9],69 ± 7
3,"CC(C)C[C@@H]1NC(=O)[C@H](Cc2c[nH]cn2)NC(=O)[C@H](Cc2c[nH]c3ccccc23)NC(=O)[C@H](C)NC(=O)[C@@H](NC(=O)[C@@H](N)CC(=O)O)CSSC[C@@H](C(=O)N[C@H](C(N)=O)[C@@H](C)O)NC(=O)[C@H](Cc2c[nH]c3ccccc23)NC(=O)[C@H](C(C)C)NC(=O)[C@H](CC(C)C)NC(=O)[C@H](CCC(=O)O)NC(=O)CNC1=O [Compound 1, reference compound]",58 ± 15
4,CC(C)C[C@@H]1NC(=O)[C@H](Cc2c[nH]cn2)NC(=O)[C@H](Cc2c[nH]c3ccccc23)NC(=O)[C@H](C)NC(=O)[C@@H](NC(=O)[C@H](CC(=O)O)NC(=O)CCOCCOCCOCCOCCOCCOCCOCCOCCOCCOCCOCCOCCOCCOCCOCCOCCOCCOCCOCCOCCOCCOCCOCCOCCN)CSSC[C@@H](C(=O)N[C@H](C(N)=O)[C@@H](C)O)NC(=O)[C@H](Cc2c[nH]c3ccccc23)NC(=O)[C@H](C(C)C)NC(=O)[C@H](CC(C)C)NC(=O)[C@H](CCC(=O)O)NC(=O)CNC1=O [Compound 11],90 ± 7
